From PubChem BioAssay (NCATS)
“And” between values parts separate entries of the source, which are not always exact repeats. Equal entries are not always repeated. This is a selection; strong and weak results do not stand in their true shares. Records with an inconclusive call do not appear. The source made the active and inactive calls. The call rests on the fitted dose curve; in most records, active means well fitted curve in the direction sought with a large enough effect; inconclusive means small, poorly fitted or top-dose-only effect, or another doubt; inactive means no such curve, though single readings can be large; an effect the other way counts as inactive or inconclusive.

Chains of the proteins cited; added tags and fusions are not shown.
UniProt O15297, whole entry: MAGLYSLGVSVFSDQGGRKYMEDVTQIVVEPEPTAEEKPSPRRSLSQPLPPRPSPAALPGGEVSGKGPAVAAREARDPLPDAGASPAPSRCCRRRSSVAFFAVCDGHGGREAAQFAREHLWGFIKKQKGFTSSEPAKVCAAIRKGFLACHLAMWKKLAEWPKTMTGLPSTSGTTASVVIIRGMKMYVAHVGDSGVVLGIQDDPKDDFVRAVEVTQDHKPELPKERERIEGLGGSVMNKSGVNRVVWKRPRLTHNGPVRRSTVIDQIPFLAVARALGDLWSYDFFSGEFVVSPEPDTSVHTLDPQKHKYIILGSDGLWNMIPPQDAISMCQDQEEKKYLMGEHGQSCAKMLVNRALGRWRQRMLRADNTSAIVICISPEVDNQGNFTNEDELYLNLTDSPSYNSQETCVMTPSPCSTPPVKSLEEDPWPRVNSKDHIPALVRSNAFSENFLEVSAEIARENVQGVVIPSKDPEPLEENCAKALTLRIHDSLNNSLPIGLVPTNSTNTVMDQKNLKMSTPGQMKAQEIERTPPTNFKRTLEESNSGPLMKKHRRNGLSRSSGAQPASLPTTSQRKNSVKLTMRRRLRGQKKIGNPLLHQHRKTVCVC

How the values were obtained:
[1] = qHTS of pediatric cancer cell lines to identify multiple opportunities for drug repurposing: Primary screen for SK-N-SH cells (AID 1347098); conditions: SK-N-SH viability, CellTiter-Glo luminescence, 48 h; at 57 µM (top of the series) unless noted;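 further: DMSO served as neutral control and bortezomib at 2.3 µM as positive control; on the % scale 0 is the no-effect control and ±100 the full control effect; nearly all actives have a fitted effect of over 65% in size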
How it was run: (§1)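 Cells (500-1,000/well) rested 5 h, then received compounds for 48 h; metabolically active cells were measured by CellTiter-Glo luminescence. Final concentrations spanned up to 46 µM (MIPE, 11-point) or 0.59 nM-46 µM (NPC, 8-point) in primary screens, 11-point in follow-ups.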

[2] = qHTS of pediatric cancer cell lines to identify multiple opportunities for drug repurposing: Primary screen for BT-12 cells (AID 1347101); conditions: BT-12 viability, CellTiter-Glo luminescence, 48 h; at 57.3 µM (top of the series) unless noted;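 further: plate controls were DMSO for no effect and bortezomib positive control for full effect; nearly all actives have a fitted effect of over 25% in size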
How it was run: as §1

[3] = qHTS of pediatric cancer cell lines to identify multiple opportunities for drug repurposing: Primary screen for Rh18 cells (AID 1347102); conditions: Rh18 rhabdomyosarcoma viability, CellTiter-Glo luminescence, 48 h; at 92.7 µM (top of the series) unless noted; further: on the % scale 0 is the no-effect control and ±100 the full control effect; nearly all actives have a fitted effect of over 65% in size
How it was run: (§2)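 Viability after 48 h compound treatment at 37C, 500-1,000 cells/well, read as ATP luminescence with CellTiter-Glo. Primary screens used 11-point (MIPE, 0.78 nM-46 µM) or 8-point (NPC, 0.59 nM-46 µM) final concentrations; follow-up screens used 11-point dilutions.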

[4] = qHTS of pediatric cancer cell lines to identify multiple opportunities for drug repurposing: Primary screen for MG 63 (6-TG R) cells (AID 1347105); conditions: MG 63 (6-TG R) viability, CellTiter-Glo, 48 h; at 46 µM (top of the series) unless noted; further: on the % scale 0 is the no-effect control and ±100 the full control effect; nearly all actives have a fitted effect of over 50% in size
How it was run: (§3)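 Viability was measured as metabolically active cells after 48 hours of treatment, read by CellTiter-Glo luminescence. Compounds were tested at multiple final concentrations, giving concentration-response curves.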

[5] = qHTS of pediatric cancer cell lines to identify multiple opportunities for drug repurposing: Primary screen for control Hh wild type fibroblast cells (AID 1347106); conditions: Hh wild-type fibroblast viability, CellTiter-Glo luminescence, 48 h; at 92.7 µM (top of the series) unless noted;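 further: on the % scale 0 is the no-effect control and ±100 the full control effect; a drop in luminescence marks cytotoxicity and a rise apparent proliferation; nearly all actives have a fitted effect of over 55% in size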
How it was run: as §2

[6] = qHTS of pediatric cancer cell lines to identify multiple opportunities for drug repurposing: Primary screen for Rh30 cells (AID 1347107); conditions: Rh30 rhabdomyosarcoma viability, CellTiter-Glo luminescence, 48 h; at 92.7 µM (top of the series) unless noted; further: on the % scale 0 is the no-effect control and ±100 the full control effect; nearly all actives have a fitted effect of over 75% in size
How it was run: as §2

[7] = qHTS of pediatric cancer cell lines to identify multiple opportunities for drug repurposing: Primary screen for Rh41 cells (AID 1347108); conditions: Rh41 rhabdomyosarcoma viability, CellTiter-Glo luminescence, 48 h; at 46 µM (top of the series) unless noted;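 further: luminescence drop marks cytotoxic hits; nearly all actives have a fitted effect of over 70% in size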
How it was run: as §3

[8] = qHTS of pediatric cancer cell lines to identify multiple opportunities for drug repurposing: Confirmatory screen for SK-N-MC cells (AID 1347111); conditions: SK-N-MC cell viability;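 further: potency means the concentration at half of the fitted maximal effect; cells exposed to compound for 48 h before the readout; nearly all actives have a fitted effect of over 70% in size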
How it was run: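 SK-N-MC cells at 500-1,000 cells/well in growth media were pre-incubated 5 h, then exposed to compounds at 11-point dilutions for 48 h at 37 degrees C, 5% CO2. Viability was read as CellTiter-Glo luminescence.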

[9] = qHTS of pediatric cancer cell lines to identify multiple opportunities for drug repurposing: Confirmatory screen for SJ-GBM2 cells (AID 1347116); conditions: SJ-GBM2 glioblastoma cells, viability; at 45.9 µM (top of the series);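 further: plate controls were DMSO for no effect and bortezomib for full effect; nearly all actives have a fitted effect of over 60% in size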
How it was run: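 Viability measured as metabolically active cells via CellTiter-Glo luminescence following 48 hours of compound exposure, 11-point dilutions in confirmatory testing. 500-1,000 cells/well plated 5 hours before dosing; controls were DMSO and 2.3 µM bortezomib.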

[10] = qHTS of pediatric cancer cell lines to identify multiple opportunities for drug repurposing: Confirmatory screen for control Hh wild type fibroblast cells (AID 1347121); conditions: viability qHTS; at 45.9 µM (top of the series);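 further: plate controls were DMSO for no effect and bortezomib for full effect; nearly all actives have a fitted effect of over 70% in size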
How it was run: as §2

[11] = qHTS of pediatric cancer cell lines to identify multiple opportunities for drug repurposing: Confirmatory screen for U-2 OS cells (AID 1347122); conditions: U-2 OS osteosarcoma cell viability; at 45.9 µM (top of the series);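 further: plate controls were DMSO for no effect and bortezomib for full effect; nearly all actives have a fitted effect of over 65% in size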
How it was run: as §2

[12] = qHTS of pediatric cancer cell lines to identify multiple opportunities for drug repurposing: Confirmatory screen for RD cells (AID 1347124); conditions: RD rhabdomyosarcoma cell viability; at 45.9 µM (top of the series);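 further: cells exposed to compound for 48 h before viability readout; on the % scale 0 is the no-effect control and ±100 the full control effect; nearly all actives have a fitted effect of over 65% in size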
How it was run: as §2

[13] = qHTS of pediatric cancer cell lines to identify multiple opportunities for drug repurposing: Confirmatory screen for Rh18 cells (AID 1347125); conditions: Rh18 rhabdomyosarcoma cells, viability; at 45.9 µM (top of the series); further: on the % scale 0 is the no-effect control and ±100 the full control effect; nearly all actives have a fitted effect of over 55% in size
How it was run: as §2

[14] = test system: Zika virus NS2B-NS3 protease; assay: Primary screen GU AMC qHTS for Zika virus inhibitors (AID 1347154); conditions: Zika NS2B-NS3 unlinked protease, AMC fluorogenic substrate; at 54.1 µM (top of the series) unless noted;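 further: 0% = no-inhibitor control and -100% = no-enzyme control; nearly all actives have a fitted effect of over 70% in size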
How it was run: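 Unlinked Zika NS2B hydrophilic domain–NS3 protease complex at 25 nM in 10 mM Tris-HCl pH 8.0, 0.01% Tween 20, with an AMC peptide substrate. Fluorescence change (340/450 nm) over 15 min at room temperature, normalized to controls, fitted to 4-parameter Hill.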

[15] = qHTS to identify inhibitors of the type 1 interferon - major histocompatibility complex class I in skeletal muscle: primary screen against the NCATS Pharmaceutical Collection (AID 1347407); conditions: human skeletal muscle cells, IFN-b-induced MHC-I HiBiT luminescence, 24 h; at 92.2 µM (top of the series) unless noted;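 further: luminescence of HiBiT knocked into endogenous HLA-B as interferon-induced MHC class I level; on the % scale 0 is the no-effect control and ±100 the full control effect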
How it was run: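 Cells were seeded with 4 ng/ml IFN-beta, incubated 1 h, then dosed with compounds over eight 1:5 steps up to 46 uM final. After 24 h at 37 C, HiBiT lytic reagent was added and luminescence read after 10 min lysis in the dark.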

[16] = target: Protein phosphatase 1D (Homo sapiens) (UniProt O15297); assay: RapidFire Mass Spectrometry qHTS Assay for Modulators of WT P53-Induced Phosphatase 1 (WIP1) (AID 1347424); conditions: WIP1 dephosphorylation of phosphopeptide, RapidFire MS; at 128 µM (top of the series) unless noted;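 further: amount of dephosphorylated VEPPL-S-QETFS peptide product formed by WIP1; plate controls were DMSO wells for no effect and GSK830371 inhibitor control at 10 µM for full effect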
How it was run: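 10 nM WIP1 preincubated with compounds 1 hr at room temperature in pH 7.5 Tris buffer with 30 mM MgCl2, 1 mM TCEP; 2 uM VEPPL-pS-QETFS phosphopeptide for 5 min, formic acid quench; dephosphorylated product quantified by RapidFire MS against labelled standard.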

[17] = qHTS of pediatric cancer cell lines to identify multiple opportunities for drug repurposing: Primary screen for NB1643 cells (AID 1347099); conditions: NB1643 neuroblastoma viability, CellTiter-Glo luminescence, 48 h; at 92.7 µM (top of the series);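 further: plate controls were DMSO neutral control for no effect and bortezomib positive control for full effect; nearly all actives have a fitted effect of over 50% in size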
[18] = qHTS of pediatric cancer cell lines to identify multiple opportunities for drug repurposing: Primary screen for LAN-5 cells (AID 1347100); conditions: LAN-5 neuroblastoma viability, CellTiter-Glo luminescence, 48 h; at 92.7 µM (top of the series);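 further: plate controls were DMSO neutral control for no effect and bortezomib positive control for full effect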
How it was run: as §2

[19] = qHTS of pediatric cancer cell lines to identify multiple opportunities for drug repurposing: Primary screen for RD cells (AID 1347104); conditions: RD rhabdomyosarcoma viability, CellTiter-Glo luminescence, 48 h; at 92.7 µM (top of the series);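 further: plate controls were DMSO for no effect and bortezomib for full effect; nearly all actives have a fitted effect of over 55% in size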
How it was run: as §3

[20] = qHTS of pediatric cancer cell lines to identify multiple opportunities for drug repurposing: Primary screen for OHS-50 cells (AID 1347103); conditions: OHS-50 osteosarcoma viability, CellTiter-Glo luminescence, 48 h; further: potency means the concentration at half of the fitted maximal effect; nearly all actives have a fitted effect of over 40% in size
How it was run: as §1

For `CN(CCCl)CCCl`, which activity change, negative = cytotoxic [1] is on record?
The activity change, negative = cytotoxic was inactive: 3.31%.

What about the activity change, negative = cytotoxic [2] of the same compound?
Its activity change, negative = cytotoxic is inactive: -15.3% and inactive: 12.5%.

And the activity change, negative = cytotoxic [3]?
The activity change, negative = cytotoxic was inactive: 1.11% [at 46 µM] and inactive: 6.05% [at 46 µM].

What about the activity change, negative = cytotoxic [4] of the same compound?
The activity change, negative = cytotoxic was inactive: -28% and inactive: 8.74%.

And the activity change, negative = cytotoxic [5]?
Its activity change, negative = cytotoxic is inactive: 9.42% [at 46 µM] and inactive: 11.4% [at 46 µM].

What about the activity change, negative = cytotoxic [6] of the same compound?
Its activity change, negative = cytotoxic is inactive: -3.52% [at 46 µM] and inactive: 10.2% [at 46 µM].

What about the activity change, negative = cytotoxic [7] of the same compound?
Its activity change, negative = cytotoxic is inactive: 5.25% and inactive: 11.3%.

And the Potency [8]?
The Potency was active: 14.7 µM.

And the activity change, negative = cytotoxic [9]?
The activity change, negative = cytotoxic was inactive: -17.3%.

And the activity, negative = cytotoxic [10]?
Its activity, negative = cytotoxic is inactive: 6.54%.

What about the activity change, negative = cytotoxicity [11] of the same compound?
The activity change, negative = cytotoxicity was inactive: -3.36%.

And the activity change, negative = cytotoxic [12]?
Its activity change, negative = cytotoxic is inactive: 0.314%.

What about the activity change, negative = cytotoxic [13] of the same compound?
The activity change, negative = cytotoxic was inactive: -0.823%.

And the activity change, negative = inhibition [14]?
Its activity change, negative = inhibition is inactive: -1.37% and inactive: 6.23%.

What about the activity change, negative = inhibition [15] of the same compound?
The activity change, negative = inhibition was inactive: 20% [at 45.9 µM].

And the activity change, negative = inhibition [16]?
The activity change, negative = inhibition was inactive: 47.8% [at 63 µM].

Which results are given for `CCC(=O)N(c1ccccc1)C1(COC)CCN(CCn2nnn(CC)c2=O)CC1`?
activity change, negative = cytotoxic [1]: inactive: -9.61% [at 115 µM]; activity change, negative = cytotoxic [17]: inactive: 0%; activity change, negative = cytotoxic [18]: inactive: -25.7%; activity change, negative = cytotoxic [2]: inactive: -1.18% [at 116 µM]; activity change, negative = cytotoxic [3]: inactive: 2.13%; activity change, negative = cytotoxic [19]: inactive: -8.1%; activity change, negative = cytotoxic [4]: inactive: -39.1% [at 92.7 µM]; activity change, negative = cytotoxic [5]: inactive: 13.7%; activity change, negative = cytotoxic [6]: inactive: -4.5%; activity change, negative = cytotoxic [7]: inactive: -16.5% [at 92.7 µM]; activity change, negative = inhibition [14]: inactive: 1.07% [at 104 µM]; activity change, negative = inhibition [15]: inactive: -6.3%; activity change, negative = inhibition [16]: inactive: -8.28%

Which activity change, negative = cytotoxic [17] does the source give for `CCC(=O)N(c1ccccc1)C1(COC)CCN(CCc2cccs2)CC1` here?
Its activity change, negative = cytotoxic is inactive: -13.3%.

What about the activity change, negative = cytotoxic [18] of the same compound?
The activity change, negative = cytotoxic was inactive: -15.5%.

What about the activity change, negative = cytotoxic [3] of the same compound?
The activity change, negative = cytotoxic was inactive: -15.6%.

And the Potency [20]?
The Potency was active: 44.7 µM.

And the activity change, negative = cytotoxic [5]?
The activity change, negative = cytotoxic was inactive: 18.2%.

And the activity change, negative = cytotoxic [6]?
The activity change, negative = cytotoxic was inactive: 3.37%.

What about the activity change, negative = inhibition [14] of the same compound?
The activity change, negative = inhibition was inactive: -0.449% [at 104 µM].

And the activity change, negative = inhibition [15]?
The activity change, negative = inhibition was inactive: -10.6%.

And the activity change, negative = inhibition [16]?
Its activity change, negative = inhibition is inactive: 38.2%.
